From patent publication US12679836B2, “4H-pyrrolo[3,2-c]pyridin-4-one compounds” (Bayer Aktiengesellschaft, priority 2019, dated 2026)

Chains of the proteins cited; added tags and fusions are not shown. A line that says so, or that is headed by a name, gives the form on record, which may keep a tag or linker.
UniProt P00533, with tags, fused parts or gaps DUP768-770: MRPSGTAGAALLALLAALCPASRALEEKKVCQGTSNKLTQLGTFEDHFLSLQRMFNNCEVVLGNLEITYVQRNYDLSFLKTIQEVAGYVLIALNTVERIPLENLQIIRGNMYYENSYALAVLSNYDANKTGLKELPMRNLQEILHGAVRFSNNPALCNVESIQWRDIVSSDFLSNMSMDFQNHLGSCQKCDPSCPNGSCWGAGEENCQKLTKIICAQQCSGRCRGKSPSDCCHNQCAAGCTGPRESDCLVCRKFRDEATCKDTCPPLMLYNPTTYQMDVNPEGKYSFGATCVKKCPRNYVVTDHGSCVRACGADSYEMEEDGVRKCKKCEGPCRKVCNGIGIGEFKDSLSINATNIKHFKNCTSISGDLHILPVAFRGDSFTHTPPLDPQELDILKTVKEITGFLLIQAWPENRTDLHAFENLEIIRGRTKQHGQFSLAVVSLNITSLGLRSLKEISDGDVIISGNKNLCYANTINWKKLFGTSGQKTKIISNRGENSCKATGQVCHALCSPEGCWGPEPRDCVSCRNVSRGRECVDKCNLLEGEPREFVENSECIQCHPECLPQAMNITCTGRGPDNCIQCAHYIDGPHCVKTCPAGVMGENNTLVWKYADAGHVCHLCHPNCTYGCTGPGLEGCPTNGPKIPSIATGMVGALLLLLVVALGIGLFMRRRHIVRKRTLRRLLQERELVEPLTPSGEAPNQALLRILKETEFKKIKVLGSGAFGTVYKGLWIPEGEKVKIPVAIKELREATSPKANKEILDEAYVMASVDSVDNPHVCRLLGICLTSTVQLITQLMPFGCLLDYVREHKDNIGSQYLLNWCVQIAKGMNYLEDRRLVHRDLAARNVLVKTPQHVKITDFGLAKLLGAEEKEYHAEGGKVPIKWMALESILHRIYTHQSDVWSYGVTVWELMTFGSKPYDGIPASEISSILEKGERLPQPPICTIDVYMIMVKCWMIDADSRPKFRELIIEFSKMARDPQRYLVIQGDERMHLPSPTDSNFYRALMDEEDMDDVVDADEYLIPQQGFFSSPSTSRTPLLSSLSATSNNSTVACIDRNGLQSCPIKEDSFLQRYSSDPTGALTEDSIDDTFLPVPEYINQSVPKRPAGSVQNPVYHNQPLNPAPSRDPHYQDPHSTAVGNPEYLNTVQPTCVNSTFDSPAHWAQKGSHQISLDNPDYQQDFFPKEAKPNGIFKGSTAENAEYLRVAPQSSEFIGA

Molecular target: Ba/F3-EGFR-insSVD cells (Homo sapiens, UniProt P00533, DUP768-770, cells depend on it)
Experiment: Ba/F3 cell survival assay (Cell Titer-Glo), EGFR-insSVD
Format: cell-based
Settings: read-out: BA/F3 (insSVD) IC50 [mol/l]; Table 5, prior art compounds of WO 2016/120196
Protocol: 293T cells from ATCC were transfected with pBABEpuro expression constructs for WT EGFR or EGFR-insSVD and pCL-Eco packaging vector using Fugene-6 transfection reagent from Promega. Plates were incubated at 37° C. for 48 h. Retrovirus was harvested by filtering the media supernatant through a 0.45 μm filter.
Ba/F3 cells purchased from DSMZ were grown in RPMI+10% FBS+10 ng/mL IL-3 and infected with filtered retroviral supernatant at a 1:2 dilution. Polybrene was added to a concentration of 8 μg/mL, plates were spun for 90 min, and incubated overnight at 37° C. 2 μg/mL puromycin was added to the infected cells 24 h after infection and cells were continually grown in the presence of puromycin and 10 ng/mL IL-3. Following stably expressing Ba/F3 cell lines were generated: Ba/F3-EGFR-WT, Ba/F3-EGFR-insSVD, (Ba/F3-vector-control).
For cell survival assays, Ba/F3 cells were grown to a density of 1-2 million cells per mL, spun down and resuspended in media without IL-3, and replated at a concentration 200,000-500,000 cells per mL. The cells ectopically expressing WT EGFR or EGFR-insSVD were plated with 10 ng/mL Millipore Culture grade EGF. The cells ectopically expressing pBABEpuro empty vector were plated with 10 ng/mL IL-3. 2 days later, cells were plated in 50 μL in a 384 well plate at a concentration of 4000 cells per well for cells assayed in the absence of IL-3 and 2000 cells per well for cells assayed in the presence of IL-3. 100 nL of compound was added to each well using a 100 nL pin head, and plates were incubated at 37° C. for 48 h.
Cell viability was measured by adding 20 μL of Cell Titer-Glo Luminescent Cell Viability Reagent diluted 1:3 in PBS. Plates were sealed with Perkin Elmer Top-Seal, inverted several times to mix, and immediately centrifuged at 1000 rpm for 2 min. Plates were incubated in low light conditions for 8-10 min and luminescence was measured.

SMILES	GI50 [nM]
COCCOc1cnccc1-c1[nH]c2c(c1Nc1ccc(F)c(F)c1)C(=O)NCC2	> 2000
O=C1NCCc2[nH]c(-c3ccncc3OCC3CC3)c(Nc3ccc(F)cc3)c21	> 2000
O=C1NCCc2[nH]c(-c3ccncc3OCC(F)F)c(Nc3cccc(F)c3)c21	> 2000
